Data on five molecules can be found in patent US9468642B2, “Imidazopyrazines” (BAYER INTELLECTUAL PROPERTY GMBH, priority 2011, dated 2016).

Chains of the proteins cited; added tags and fusions are not shown. Lines headed by an entry give the natural chain unless they say otherwise; changes in a name come on top.
UniProt P33981: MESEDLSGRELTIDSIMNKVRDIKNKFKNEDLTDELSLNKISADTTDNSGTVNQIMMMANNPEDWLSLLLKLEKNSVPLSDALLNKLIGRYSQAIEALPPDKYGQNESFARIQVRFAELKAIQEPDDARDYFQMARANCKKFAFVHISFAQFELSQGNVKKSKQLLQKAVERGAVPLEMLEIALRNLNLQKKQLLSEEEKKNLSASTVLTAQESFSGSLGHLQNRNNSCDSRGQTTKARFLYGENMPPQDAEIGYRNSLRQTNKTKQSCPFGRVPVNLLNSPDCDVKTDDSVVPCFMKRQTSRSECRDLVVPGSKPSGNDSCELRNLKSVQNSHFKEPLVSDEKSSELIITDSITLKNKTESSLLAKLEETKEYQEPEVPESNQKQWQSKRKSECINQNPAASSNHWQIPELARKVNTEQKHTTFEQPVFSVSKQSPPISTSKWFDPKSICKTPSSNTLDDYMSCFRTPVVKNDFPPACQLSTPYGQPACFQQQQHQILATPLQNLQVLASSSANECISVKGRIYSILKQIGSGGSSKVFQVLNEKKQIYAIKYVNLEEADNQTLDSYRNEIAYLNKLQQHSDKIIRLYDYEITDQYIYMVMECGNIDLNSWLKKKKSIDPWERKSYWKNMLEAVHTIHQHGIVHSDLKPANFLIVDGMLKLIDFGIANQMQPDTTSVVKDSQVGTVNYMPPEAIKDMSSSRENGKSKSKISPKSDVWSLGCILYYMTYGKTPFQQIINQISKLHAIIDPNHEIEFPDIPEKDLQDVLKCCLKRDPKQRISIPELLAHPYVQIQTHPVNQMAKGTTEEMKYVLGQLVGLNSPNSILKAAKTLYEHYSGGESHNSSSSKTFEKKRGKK

For this assay, the target named is human kinase Mps-1 (Homo sapiens (Human), UniProt P33981). Briefly: Mps-1 Kinase Assay (TR-FRET). As to conditions: N-terminally GST-tagged human full length recombinant Mps-1; 10 μM ATP; 1 μM peptide substrate; 60 min at 22° C.; read-out: Mps1 IC50. Format: biochemical. The procedure: The human kinase Mps-1 phosphorylates a biotinylated substrate peptide. Detection of the phosphorylated product is achieved by time-resolved fluorescence resonance energy transfer (TR-FRET) from Europium-labelled anti-phospho-Serine/Threonine antibody as donor to streptavidin labelled with cross-linked allophycocyanin (SA-XLent) as acceptor. Compounds are tested for their inhibition of the kinase activity.
N-terminally GST-tagged human full length recombinant Mps-1 kinase (purchased from Invitrogen, Karslruhe, Germany, cat. no PV4071) was used. As substrate for the kinase reaction a biotinylated peptide of the amino-acid sequence […] (C-terminus in amide form, purchased from Biosynthan GmbH, Berlin) was used.
The concentration of Mps-1 in the assay was adjusted to the activity of the enzyme lot and was chosen appropriate to have the assay in the linear range, typical enzyme concentrations were in the range of about 1 nM (final conc. in the 5 μl assay volume).
The resulting mixture was incubated 1 h at 22° C. to allow the binding of the phosphorylated peptide to the anti-phospho(Ser/Thr)-Europium-antibody. Subsequently the amount of phosphorylated substrate was evaluated by measurement of the resonance energy transfer from the Europium-labelled anti-phospho(Ser/Thr) antibody to the Streptavidin-XLent.
For `CC[S+]([O-])c1nc(-c2ccccc2)cn2c(-c3ccc(C(=O)NC4CC4)cc3)cnc12` (racemic) [Example 5A, (RS) N-Cyclopropyl-4-[8-(ethylsulfinyl)-6-phenylimidazo[1,2-a]pyrazin-3-yl]benzamide], the IC50 turned out to be 27.7 nM. To `CCCC[S+]([O-])c1nc(-c2ccccc2)cn2c(-c3ccc(C(=O)NC4CC4)cc3)cnc12` (racemic) [Example 9A, (RS) 4-[8-(Butylsulfinyl)-6-phenylimidazo[1,2-a]pyrazin-3-yl]-N-cyclopropylbenzamide] belongs 10.3 nM; to `CC(C)(C)CC[S+]([O-])c1nc(-c2ccccc2)cn2c(-c3ccc(C(=O)NC4CC4)cc3)cnc12` (racemic) [Example 11A, (RS) N-Cyclopropyl-4-{8-[(3,3-dimethylbutyl)sulfinyl]-6-phenylimidazo[1,2-a]pyrazin-3-yl}benzamide], 23 nM.

With `O=C(NC1CC1)c1ccc(-c2cnc3c([S+]([O-])Cc4ccco4)nc(-c4ccccc4)cn23)cc1` (racemic) [Example 28A, (RS) N-cyclopropyl-4-{8-[(2-furylmethyl)sulfinyl]-6-phenylimidazo[1,2-a]pyrazin-3-yl}benzamide], the IC50 was 16.9 nM.

As to `CSc1nc(-c2ccc(CCO)cc2)cn2c(-c3ccc(-c4cnc(C5CC5)[nH]4)cc3)cnc12` (single isomer, unassigned) [Example 34A, 2-(4-{3-[4-(2-cyclopropyl-1H-imidazol-5-yl)phenyl]-8-(methylsulfanyl)imidazo[1,2-a]pyrazin-6-yl}phenyl)ethanol], the IC50 was found to be 48.7 nM.
